Data reported in patent US10189828B2, “1-methylpyrazole-piperazine compounds having multimodal activity against pain” (LABORATORIOS DEL DR. ESTEVE S.A., priority 2014, dated 2019).

System: human σ1 receptor and human μ-opioid receptor
Experiment: μ and σ1 dual binding: human σ1 receptor radioligand assay ([3H](+)-pentazocine, transfected HEK-293 membranes) and human μ-opioid receptor radioligand assay ([3H]-DAMGO, transfected CHO-K1 membranes)
Settings: one combined class for Ki-μ and Ki-σ1

With `Cn1nccc1N(c1ccccc1)C1CCN(Cc2ccccc2)CC1` the “μ and σ1 dual binding” value was “++”.
